The numbers were not newly measured in patent US20040266795A1, “Process for the preparation of famciclovir” (priority 2003, published 2004), which cites them from elsewhere.

The conditions of this series: cited from earlier work.

For the substance “2-[2-(2-amino-9H-purin-9-yl)ethyl]-1,3-propane diacetate [famciclovir]”, the solubility in water (anhydrous form, 25° C.) is on record as above 25 % w/v. Where the note is “isopropanol”, the solubility in isopropanol entry was “sparingly soluble”. In addition, the solubility in methanol result (methanol) is “freely soluble”.
